# From paper PMC9037210, “Novel 3-(6-methylpyridin-2-yl)coumarin-based chalcones as selective inhibitors of cancer-related carbonic anhydrases IX and XII endowed with anti-proliferative activity” (Journal of Enzyme Inhibition and Medicinal Chemistry, 2022)
# Assays:
# hCA IX = biological target: T1, hCA IX (Homo sapiens, UniProt Q16790); assay: stopped-flow CO2 hydrase assay, hCA IX; format: biochemical
# T1 construct: made in house
# Procedure: (§1) The newly synthesised MPCs (3 and 5a–o) were assessed for their CA inhibition activity employing the stopped-flow CO2 hydrase assay[29] for constitutional hCA (I/II) isoforms and cancer-linked hCA (IX/XII) isoforms.
# (§2) The CA inhibition activity for the herein reported MPC derivatives was evaluated against the hCA isoforms I, II, IX, and XII using stopped-flow CO2 hydrase test[7]^,[33–36] (see the Supplementary Material).
# (§3) Carbonic anhydrase inhibition assay
# (§4) The carbonic anhydrase catalyzed CO2 hydration actions for all coumarin-based […]
# (§5) Photophysics stopped-flow. The enzymes are recombinant proteins prepared in our lab. Phenol red (at a concentration of 0.2 mM) has been used as indicator, working at […]
# (§6) mM Na2SO4 (for maintaining constant the ionic strength), following the initial rates of the CA-catalyzed CO2 hydration reaction for a period of 10-100 s. The CO2 concentrations ranged from 1.7 to 17 mM for the determination of the kinetic parameters and inhibition constants. For each inhibitor at least six traces of the initial 5-10% of the reaction have been used for determining the initial velocity. The uncatalyzed rates were determined in the same manner and subtracted from the total observed rates. Stock solutions of inhibitor (0.1 mM) were prepared in distilled-deionized water and dilutions up to 0.01 nM were done thereafter with the assay buffer. […]
# hCA XII = biological target: T2, hCA XII (Homo sapiens, UniProt O43570); assay: stopped-flow CO2 hydrase assay, hCA XII; format: biochemical; settings: ratio of KI for hCA I and II relative to hCA XII
# T2 construct: made in house
# Procedure: as §1, §2, §3, §4, §5, §6
compound,measurement,setting,value
"Cc1nc(-c2cc3ccccc3oc2=O)ccc1C(=O)/C=C/c1cccs1 [Compound 5m, 3-(6-Methyl-5-[(2E)-3-(thiophen-2-yl)prop-2-enoyl]pyridin-2-yl)-2H-chromen-2-one]",Selectivity index (SI) (KI off-target CA/KI target CA) Towards hCA IX,hCA IX,>90.91
same,Selectivity index (SI) (KI off-target CA/KI target CA) Towards hCA XII,hCA XII,>37.04
